## Antibody variant affinities, Ab-91 heavy chain, assay 2

Values reported by Engelhart et al. 2022, doi:10.1038/s41597-022-01779-4 (FLAb copy).

All variants were tested on one target, the spike HR2 peptide PDVDLGDISGINAS (SARS-CoV-2).

Ab-91 is the parent antibody, in scFv form: VL, then three GGGGS repeats, then VH. The light chain is unchanged in all variants.
VL: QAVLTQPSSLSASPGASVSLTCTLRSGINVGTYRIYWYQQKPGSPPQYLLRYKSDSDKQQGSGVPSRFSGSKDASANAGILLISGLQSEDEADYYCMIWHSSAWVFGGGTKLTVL
VH: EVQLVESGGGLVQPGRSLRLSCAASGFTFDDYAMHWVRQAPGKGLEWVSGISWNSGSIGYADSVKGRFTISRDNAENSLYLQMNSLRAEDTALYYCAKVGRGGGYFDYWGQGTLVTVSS

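AAYL51 was designed without a model: most single CDR substitutions and a random sample of double and triple ones. In AlphaSeq, yeast of one mating type display the scFv and yeast of the other type display the target. Pairs that bind mate more often; barcode pairs of the diploids are counted by sequencing. Each replicate has its own calibration line, from reference interactions of the BCL2 family. The assay was run in three technical replicates.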

Variants are written as CDR1, CDR2 and CDR3 of the heavy chain (limits as in the source). Parent: GFTFDDYAMH, GISWNSGSIGYADSVK, VGRGGGYFDY. Values are log10 of the apparent Kd in nM; lower means stronger binding. A mean of the replicates is given; it leaves out those without a signal. "n.d." means that the variant was in the library but no mating with the target was seen in that replicate; the authors take this as a sign of poor binding, and no number exists.

CDR-H1,CDR-H2,CDR-H3,"log10 Kd, replicates",mean log10 Kd (nM),signal with controls
GFTFDDYAMH,GISWNSWSIGYAPPVK,VGRGGGYFDY,2.46 2.46 2.36,2.43,5/9 (5.09)
GFTFDDYAMH,GITWNIGSIGTADSVK,VGRGGGYFDY,n.d. n.d. n.d.,n.d.,0/9
GFTFDDYAMH,GISWNSGSIGYADSVW,VGRWGGYFDM,4.31 n.d. 3.00,3.66,1/9 (5.19)
GFTFDDYAKH,GISWNSGSIGYADSVR,VCRGGGYFDY,n.d. n.d. n.d.,n.d.,0/9
GFVFDDYAMH,GISWNSGSINYADSVL,VGRGGGYFDY,n.d. n.d. n.d.,n.d.,1/9 (2.66)
GFTFDDYAMH,GISWNSGSIGYADSVK,VGRRGGYEDY,n.d. n.d. n.d.,n.d.,0/9
GFTFDDYWVH,GIGWNSGSIGYADSVK,VGRGGGYFDY,4.80 5.16 n.d.,4.98,3/9 (4.85)
GFTFDDYAMH,GISWNSGSIGYADSVA,VGRGGGHFDY,5.00 n.d. 6.35,5.67,7/9 (5.33)
GFTFDDYAPH,GISWNSGSIGYAISVM,VGRGGGYFDY,2.32 2.36 2.29,2.32,2/9 (4.28)
GFTFDDWAMH,CISPNSGSIGYADSVK,VGRGGGYFDY,4.93 4.77 n.d.,4.85,4/9 (5.05)
AFTFDDYAMH,GGSWNSGCIGYADSVK,VGRGGGYFDY,4.59 n.d. 4.37,4.48,2/9 (4.88)
SFTFDDYAMH,GISFNSGSIGYADSVI,VGRGGGYFDY,n.d. n.d. n.d.,n.d.,0/9
GTTFDDYAMH,GISWNSGSIGYADSVK,VLRGGGYFDY,5.45 n.d. n.d.,5.45,1/9 (4.89)
GFTFDDLAMH,GILWNSGSIGYADSVK,VGRGPGYFDY,n.d. n.d. n.d.,n.d.,0/9
GFPFDDYAMH,GISWNSGSIGYADSVK,VGLGGGYFDY,5.83 n.d. n.d.,5.83,1/9 (4.61)
GFTFDNYAMH,GISWNSGSIGKADSVV,VGRGGGYFDY,n.d. n.d. n.d.,n.d.,1/9 (3.99)
GATFNDYAMH,GISWNSGSIGYADSVK,VGRGGGYFDT,n.d. n.d. n.d.,n.d.,1/9 (4.21)
GFTEDAYAMH,GISWNSGSIGYADSVK,VFRGGGYFDY,n.d. n.d. n.d.,n.d.,0/9
GQTFDDYAMH,GISCNSGSIGYADSVK,VQRGGGYFDY,n.d. n.d. n.d.,n.d.,0/9
GFTFDDYAQH,GISWNSGSIGYAGSVK,VGRGGGYFDY,n.d. n.d. 4.28,4.28,2/9 (4.11)
GFEFDDYAMD,GISWNSGSIGYADSVK,VGRGGYYFDY,4.37 4.97 n.d.,4.67,3/9 (4.37)
GFTFDDYAMH,GISWNSGSIGYADSVK,FGRWGQYFDY,n.d. n.d. n.d.,n.d.,0/9
GFTFDDYAMH,GISWNSGSIGYADSVH,VFRGGGYFDY,1.49 1.53 1.26,1.43,2/9 (4.89)
GFTFDDYAMH,GIIWSSGSIGYADSVK,VGRGGGYFDY,n.d. n.d. n.d.,n.d.,0/9
VTTFDDYMMH,GISWNSGSIGYADSVK,VGRGGGYFDY,n.d. n.d. n.d.,n.d.,2/9 (5.54)
GFTHMDYAMH,GISWNSGSIGYADSVK,VGRGGGPFDY,3.87 n.d. n.d.,3.87,1/9 (5.65)
VDTTDDYAMH,GISWNSGSIGYADSVK,VGRGGGYFDY,n.d. 3.73 3.76,3.75,1/9 (4.04)
GFQFDDYCMH,GISWNSGSIGYADSVK,VGRGGGYFDG,n.d. n.d. n.d.,n.d.,1/9 (3.67)
GSAFDDYAMH,GISWNSLSIGYADSVK,VGRGGGYFDY,5.16 4.21 4.72,4.70,3/9 (4.12)
GFTFADYAMH,GISWNSGSIGSADSVH,VGRGGGYFDY,n.d. 5.11 n.d.,5.11,2/9 (4.33)
SFTFDDYAMH,GISWNSGSICYADSVK,VGRGGGHFDY,n.d. n.d. n.d.,n.d.,1/9 (3.56)
NFTFDDYAMH,GISWNSGSIGYADGVK,VGRGGGAFDY,4.25 6.04 n.d.,5.15,3/9 (4.62)
GFTFDDYAMH,GISLNSGSIGYADSVK,VGRGYGYFQY,n.d. n.d. n.d.,n.d.,2/9 (3.71)
GFTFDDYAMH,GISWNSGSIGYAQSVK,AGRGGGYFDI,n.d. 5.11 n.d.,5.11,1/9 (5.16)
GFMFDDYAIH,GISWNSGSIGYADCVK,VGRGGGYFDY,3.47 5.45 n.d.,4.46,2/9 (3.69)
GFTKDDYAMH,GISWNSGSIGYADSVK,VGRGGGYFAY,n.d. n.d. n.d.,n.d.,2/9 (3.53)
GDTFDDYAMH,GITWNSGSIGYADSVK,VGRGGGYFVY,5.09 n.d. n.d.,5.09,2/9 (3.77)
GFTFRDYAMH,GCSWNSGSIGYADSVK,VGRGGGYFDD,2.84 3.05 3.39,3.09,6/9 (4.78)
GFTFDDYAMV,GISWNSGSIGMADSVK,VGRGGGYFDY,5.02 4.96 5.25,5.07,5/9 (4.85)
GFTFDDYAMH,QASWNSGSIGYADSVK,VGTGGGYFDY,4.89 n.d. n.d.,4.89,1/9 (4.70)
GFTFDDYAMH,GISCNSGSIGYADSVK,VGRGGGPFDY,4.60 3.03 n.d.,3.82,3/9 (3.66)
GFTFRDYAMH,GISWNSGSIGYADSVK,VGRGGMVFDY,4.65 4.57 4.59,4.60,6/9 (4.67)
GFTFDDYAMY,HISWNSYSIGYADSVK,VGRGGGYFDY,n.d. n.d. n.d.,n.d.,0/9
GFTFDDYAMH,GISWNSGSIGYAMQVK,VGRGGGYFDY,3.11 4.04 4.28,3.81,1/9 (5.28)
GFTFDDYAMH,GISWNSGSICYEDLVK,VGRGGGYFDY,n.d. n.d. n.d.,n.d.,2/9 (4.33)
GFTFDDYAMH,GISWNSGSIGCADSVK,VNRGGGYFQY,n.d. n.d. n.d.,n.d.,1/9 (5.45)
GFDFDDYAMH,RISWNSGSIGYADSVK,VGRGGMYFDY,n.d. 3.92 4.03,3.98,2/9 (4.48)

7 of these entries, quoted again:

| CDR-H1 | CDR-H2 | CDR-H3 | log10 Kd, replicates | mean log10 Kd (nM) | signal with controls |
|---|---|---|---|---|---|
| GFTFADYAMH | GISWNSGSIGSADSVH | VGRGGGYFDY | n.d. 5.11 n.d. | 5.11 | 2/9 (4.33) |
| GATFNDYAMH | GISWNSGSIGYADSVK | VGRGGGYFDT | n.d. n.d. n.d. | n.d. | 1/9 (4.21) |
| GFMFDDYAIH | GISWNSGSIGYADCVK | VGRGGGYFDY | 3.47 5.45 n.d. | 4.46 | 2/9 (3.69) |
| GFTFDDYAMH | GISWNSGSIGYADSVK | VGRRGGYEDY | n.d. n.d. n.d. | n.d. | 0/9 |
| GFTFDDYAMH | QASWNSGSIGYADSVK | VGTGGGYFDY | 4.89 n.d. n.d. | 4.89 | 1/9 (4.70) |
| SFTFDDYAMH | GISWNSGSICYADSVK | VGRGGGHFDY | n.d. n.d. n.d. | n.d. | 1/9 (3.56) |
| GFEFDDYAMD | GISWNSGSIGYADSVK | VGRGGYYFDY | 4.37 4.97 n.d. | 4.67 | 3/9 (4.37) |

Parent in this assay: reference entry 1.86, copy in this library 0.88. Three control strains display no target. For library AAYL51, 21% of the pairings with them gave a signal, with a median of 4.54 and one signal in twenty below 3.26, so weak values seen in few replicates may be background. For each scFv, signals with the empty controls are counted beside the result, with their mean in brackets.